Results: patent US20200316038A1, “METHODS AND COMPOSITIONS FOR TREATING UREA CYCLE DISORDERS, IN PARTICULAR OTC DEFICIENCY” (CAMP4 THERAPEUTICS CORPORATION, priority 2017, published 2020)

Test system: NAGS

OCCn1cc(-c2ccc3c(c2)CC/C3=N\O)c(-c2ccncc2)n1 [GDC-0879]
NAGS expression, Fold change (Log 2) vs untreated: 0.85 Log 2
